What follows are compounds tested on arthritis model induced by collagen. Conditions: oral, two consecutive weeks, clinical score.

| SMILES | therapeutic effect on rheumatoid arthritis of the mice |
| --- | --- |
| CN(c1ncnc2[nH]ccc12)N1CCC[C@@H](C(=O)NCC(F)(F)F)C1 (single isomer, unassigned) [WX05, (R or S)-1-[methyl(7H pyrrolo[2,3-d]pyrimidin-4-yl)amino]-N-(2,2,2-trifluoroethyl)piperidyl-3-formamide] | obvious therapeutic effect on rheumatoid arthritis of the mice |
| CN(c1ncnc2[nH]ccc12)N1CCC[C@@H](C(=O)NCC#N)C1 (single isomer, unassigned) [WX08, (R or S)—N-(cyanomethyl-1-[methyl(7H-pyrrolo[2,3-d]pyrimidin-4-yl)amino]piperidyl)-3-formamide] | obvious therapeutic effect on rheumatoid arthritis of the mice |
| CN(c1ncnc2[nH]ccc12)N1CCCC(C(=O)NCC(F)(F)F)C1 (stereo not shown) [WX04] | obvious therapeutic effect on rheumatoid arthritis of the mice |
| CN(c1ncnc2[nH]ccc12)N1CCCC(C(=O)NCC#N)C1 (stereo not shown) [WX07, N-(cyanomethyl)-1-[methyl(7H-pyrrolo[2,3-d]pyrimidin-4-yl)amino]piperidyl-3-formamide] | obvious therapeutic effect on rheumatoid arthritis of the mice |

Reference: US10617690B2 (priority 2015, dated 2020)
